Laboratory results from patent US20150359854A1 (HUMAN MATRIX SCIENCES, LLC, priority 2012, published 2015).
Entries after “also recorded” stand apart in the source; their conditions may differ.

Target: T1, IGF-1R (Homo sapiens, UniProt P08069)
T1 construct: 30-minute treatment of cultured AoSMCs; endogenous in cells; host or cells: human aortic smooth muscle cells (AoSMCs), second passage
Assay: Immunoprecipitation and anti-phospho-Tyr blotting of IGF-1R
Format: cell-based
Details: 30 minutes, 0.5 to 10 nmol/L insulin or 10 nmol/L IGF-1, AoSMCs
Description: At the end of all treatments, cells from quadruplicate cultures in each experimental group were lysed using NP40 cell lysis buffer (Invitrogen Corp.). Thirty micrograms of protein extracts from each sample was suspended in standard sample buffer, resolved on 4% to 12% gradient SDS-PAGE gels, transferred to nitrocellulose membranes, and subjected to Western blotting using antibodies.
At the end of indicated treatments, the cultured cells were lysed as described, and 300 μL aliquots of cell extracts containing […] were incubated at 4° C. for 3 hours with the aliquots of protein G bound DYNABEADS® (Invitrogen Corp.) that were conjugated with either rabbit polyclonal anti-tropoelastin, goat polyclonal anti-Glut10, or rabbit polyclonal anti-S-Gal antibodies. The beads carrying the final immunoprecipitation products were then washed with PBS, resuspended in sample buffer, and boiled for 5 minutes. The released proteins were then resolved on SDS-PAGE gel and subjected to Western blotting using indicated antibodies.

**Q.** IGF-1 was tested. Which “phosphorylation of IGF-1R” value did it give?
**A.** The value was “phosphorylated only in cultures treated with IGF-1; also recorded: could only be induced”.
